Measurements from PubChem BioAssay AID588489 (Sanford-Burnham Center for Chemical Genomics, 2011).
The entries are a selection whose mix differs from that of the whole data set. Some results for these compounds are left out of this collection, so the calls shown say nothing about other tests. Activity calls are given as the source filed them. No stated cut-off is given here; in the data, active means inhibition above about 35% (passing the limit was not always enough); inactive means the rest.

Protein sequences, listed by entry. Tags and fused reporters are not part of them.
UniProt P11940, whole entry: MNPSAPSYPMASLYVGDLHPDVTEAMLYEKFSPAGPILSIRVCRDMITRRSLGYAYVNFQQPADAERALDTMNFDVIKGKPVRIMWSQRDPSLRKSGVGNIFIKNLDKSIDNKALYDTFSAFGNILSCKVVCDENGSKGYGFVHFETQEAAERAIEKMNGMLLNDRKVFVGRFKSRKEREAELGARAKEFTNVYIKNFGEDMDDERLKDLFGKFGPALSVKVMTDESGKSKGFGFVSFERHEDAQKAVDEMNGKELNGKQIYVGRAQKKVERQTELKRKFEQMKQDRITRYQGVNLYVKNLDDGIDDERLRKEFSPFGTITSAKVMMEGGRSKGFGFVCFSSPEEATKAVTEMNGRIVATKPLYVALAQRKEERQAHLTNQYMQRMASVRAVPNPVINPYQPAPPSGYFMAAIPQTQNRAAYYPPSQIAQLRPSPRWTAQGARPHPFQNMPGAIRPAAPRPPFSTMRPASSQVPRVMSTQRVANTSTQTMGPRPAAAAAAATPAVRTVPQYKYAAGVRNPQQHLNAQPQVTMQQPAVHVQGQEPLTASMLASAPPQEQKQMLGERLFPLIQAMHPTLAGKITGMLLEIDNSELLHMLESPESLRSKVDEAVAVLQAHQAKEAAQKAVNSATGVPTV

biological target: Polyadenylate-binding protein 1 (Homo sapiens) (UniProt P11940); test: inhibitors of PABP1 MLLE–PAM2 peptide binding, primary screen, biochemical, fluorescence polarization, FITC-PAM2, GST-MLLE (AID 588489); conditions: at 20 µM, stronger effect = higher value;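 further: plate controls were DMSO wells with GST-MLLE for no effect and wells lacking GST-MLLE protein for full effect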

| Compound | inhibition |
| --- | --- |
| COc1ccc(C(=O)NCC2(N(C)C)CCCCC2)cc1 | inactive: -14.3% |
| O=C(NCC1(N2CCCCC2)CCCCC1)c1cccc(Br)c1 | inactive: -5.8% |
| Cc1cc(C(=O)NCC2(N3CCCCC3)CCCCC2)ccc1[N+](=O)[O-] | inactive: -4.14% |
| CCN1CCCC(OC(=O)C2(O)c3ccccc3C=Cc3ccccc32)C1 (stereo unspecified) | inactive: -2.95% |
| O=C(NCC1(N2CCCCC2)CCCCC1)c1cc(F)c(F)cc1Cl | inactive: 2.65% |
| C=CCN1CCN(CCOC(=O)C(O)(c2ccccc2)c2ccccc2)CC1 | inactive: -3.09% |
| CN(C)C1CCCC1OC(=O)C(O)(c1ccccc1)c1ccccc1 (stereo unspecified) | inactive: 22.5% |
| CN(C)c1ccc(C(=O)NCC2(N(C)C)CCCCC2)cc1 | inactive: -4.01% |
| Cc1ccccc1C(=O)NCC1(N2CCCCC2)CCCCC1 | inactive: -6.51% |
| Cc1ccc(C(=O)NCC2(N3CCCCC3)CCCCC2)cc1 | inactive: -7.9% |
| COc1cc(SC)ccc1C(=O)NCC1(N(C)C)CCCCC1 | inactive: -10.8% |
| CCN(CC)CC(C)C(C)OC(=O)C(O)(c1ccccc1)c1ccccc1 (stereo unspecified) | inactive: -2.73% |
| CC(C)N1C(=O)CC2(CCN(CCOC(=O)C(O)(c3ccccc3)c3ccccc3)CC2)C1=O | inactive: 5.48% |
| CN1[C@@H]2CC[C@H]1CC(OC(=O)C(O)(c1ccccc1)c1ccccc1)C2 (stereo partly specified) | inactive: -18.6% |
| O=C(NCC1(N2CCCCC2)CCCCC1)c1cc([N+](=O)[O-])ccc1Cl | inactive: -30.4% |
| O=C(OCCN1CCCC1)C(O)(c1ccccc1)c1ccccc1 | inactive: 5.82% |
| CC(C)Oc1ccc(C(=O)NCC2(N(C)C)CCCCC2)cc1 | inactive: 7.64% |
| CN(C)c1cccc(C(=O)NCC2(N(C)C)CCCCC2)c1 | inactive: 2.32% |
| C=C(C)C#CC(O)(C(=O)OC1CCN(C)CC1)c1ccccc1 (stereo unspecified) | inactive: 5.49% |
| COc1ccc(Br)c(C(=O)NCC2(N3CCCCC3)CCCCC2)c1 | inactive: -8.99% |
| O=C(OC1CN2CCC1CC2)C(CO)(c1ccccc1)c1ccccc1 (stereo unspecified) | inactive: -12.8% |
| O=C(NCC1(N2CCCCC2)CCCCC1)c1cccc(Cl)c1 | inactive: -3.38% |
| COc1ccc(Cl)cc1C(=O)NCC1(N(C)C)CCCCC1 | inactive: -10.4% |
| COc1cccc(C(=O)NCC2(N3CCCCC3)CCCCC2)c1 | inactive: -6.21% |
| COc1cc(C(=O)NCC2(N(C)C)CCCCC2)c([N+](=O)[O-])cc1OC | inactive: 8.56% |
| CN(C)C1(CNC(=O)c2ccc(Br)cc2)CCCCC1 | inactive: -3.73% |
